Patent US8318949B2, “Organic compounds” (Novartis AG, priority 2008, dated 2012)

The chains behind the UniProt entries cited, without tags or fusion partners.
UniProt P13516, whole entry: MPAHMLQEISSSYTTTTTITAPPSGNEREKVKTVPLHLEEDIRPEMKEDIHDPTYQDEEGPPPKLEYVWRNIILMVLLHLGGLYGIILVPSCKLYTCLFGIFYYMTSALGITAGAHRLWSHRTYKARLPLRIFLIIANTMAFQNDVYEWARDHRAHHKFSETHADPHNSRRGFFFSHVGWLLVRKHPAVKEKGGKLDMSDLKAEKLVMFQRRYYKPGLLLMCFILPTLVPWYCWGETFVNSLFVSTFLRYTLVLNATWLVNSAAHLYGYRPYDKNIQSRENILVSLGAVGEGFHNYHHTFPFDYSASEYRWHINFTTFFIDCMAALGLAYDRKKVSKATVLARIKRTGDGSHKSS

Target: stearoyl-CoA desaturase (SCD1) (Mus musculus, UniProt P13516)
Experiment: Stearoyl-CoA desaturase inhibition, mouse liver microsomes (release of 3H2O from [9,10-3H]stearoyl-CoA)
Details: read-out: Microsomal IC50, 15 min incubation, 25° C.
From the text: The identification of compounds of the invention as SCD inhibitors was readily accomplished using the SCD enzyme and microsomal assay procedure described in Shanklin J. and Summerville C., Proc. Natl. Acad. Sci. USA (1991), Vol. 88, pp. 2510-2514.
Measuring Stearoyl-CoA Desaturase Inhibition Activity of a Test Compound Using Mouse Liver Microsomes
The identification of compounds of the invention as SCD inhibitors was readily accomplished using the SCD microsomal assay procedure described in Shanklin J. and Summerville C., Proc. Natl. Acad. Sci. USA (1991), Vol. 88, pp. 2510-2514.
Male ICR outbread mice, on a high-carbohydrate, low fat diet, under light halothane (15% in mineral oil) anesthesia are sacrificed by exsanguination during periods of high enzyme activity. Livers are immediately rinsed with cold 0.9% NaCl solution, weighed and minced with scissors. […] The absence of mitochondrial contamination is enzymatically assessed. The protein concentration is measured using bovine serum albumin as the standard.
Desaturase activity is measured as the release of ^3H2O from [9,10-^3H]stearoyl-CoA. […] The flow through containing the ^3H2O released by the SCD1 desaturation reaction is added to scintillation fluid and the radioactivity measured in a Packard TopCount. The data is analysed to identify the IC50 for test compounds and reference compounds. […]

IC50	SMILES
88 nM	Cc1nc(-n2cnn(CC3CC3(F)F)c2=O)sc1C(=O)NCc1ccccn1 (centres unmarked)
26 nM	Cc1nc(-n2cnn(Cc3ccc(OC(F)(F)F)cc3)c2=O)sc1C(=O)NCc1cncs1
